In US7893078B2, “Use of cyclopamine in the treatment of basal cell carcinoma and other tumors” (priority 2001, dated 2011):

What was measured:
[1] = system: basal cell carcinoma (BCC); conditions: human, in vivo
Method: The base cream used is made predominantly of heavy paraffin oil (10% w/w), vaseline (10% w/w), stearyl alcohol (8% w/w), polyoxysteareth-40 (3% w/w) and water (68% w/w), but another suitably formulated base cream is also possible. […] Night-time applications, avoided in this schedule because of possible loss of cream from the patient skin to linens during sleep, can be performed by suitable dermal patches.
Every third hour, about 20 μl cream was applied directly onto the lower half and the upper half was left untreated.
The tumor was then followed up without treatment for a study of the possible late effects. […] For example expression of the cell adhesion molecule CD44 is known to increase upon differentiation of the epidermal basal cells to the upper spinous layer cells (Kooy A J et al (1999) Human Pathology 30:1328-1335).

trichoepithelioma = conditions: human, in vivo
Excerpt: Trichoepithelioma is another tumor associated with genetic changes that cause increased hedgehog-smoothened signalling (Vorechovsky L. et al. (1997) Cancer Res. 57:4677-4681; Nilsson M. et al. (2000) Proc. Natl. Acad. Sci. USA 97:3438-3443).

cells = conditions: Taipale J. et al (2000) Nature 406; cited from earlier work

Structure (SMILES): CC1=C2C[C@H]3[C@@H](CC=C4C[C@@H](O)CC[C@@]43C)[C@@H]2CC[C@]12O[C@@H]1C[C@H](C)CN[C@H]1[C@H]2C [Cyclopamine]
- Retraction of BCC from stroma (arrest of proliferation) [1]: consistently retracted from stroma
- Apoptotic activity among residual tumor cells (trichoepithelioma): marked apoptotic activity
- Effect on the viability of cells (cells): no significant effect
